Measurements published in BindingDB's records for doi:10.1016/S0893-133X(01)00298-6 (Eli Lilly, 2001).

Target: Norepinephrine transporter (Rattus norvegicus, UniProt Q9JIA2)

## COc1ccc(C(CN(C)C)C2(O)CCCCC2)cc1 (stereo unspecified) [NSC_62923]
  Ki: 3.19 µM
